The IC50 is the midpoint of a concentration-inhibition curve.

For the assay, the system named is phospho-Ser-473-Akt. Nature of the assay: AKT phosphorylation inhibition, Western blot cell assay. The following applies: read-out: IC50 of AKT Phosphorylation Inhibition, p-AKT cell; cell assay procedure. (In western blotting, separated proteins are transferred to a membrane and probed.)

For the compound `CS(=O)(=O)N1CCN(Cc2cn3cc(-c4cnc(N)nc4)nc(N4CCOCC4)c3n2)CC1`, the 50% inhibitory concentration (IC50) stood at 8 nM.

Values taken from US9993554B2 (CENTRO NACIONAL DE INVESTIGACIONES ONCOLOGICAS (CNIO), priority 2010, dated 2018).
